Measurements from patent US5552382A, “Gramicidin as a spermicide against sexual transmission of HIV” (priority 1994, dated 1996).

Tested on: MT-4 lymphocytes
Conditions: MT-4 cells, 3 days continuous exposure; approximate log10 concentration

gramicidin
CC100 (cytotoxicity): ~10 µg
